Laboratory results from publication PMC3034772 (Pharmaceutical research, 2010).

Assays:
[1] = PAMPA
[2] = In combo PAMPA-BBB model, calculated log Po in situ

Row | Structure (SMILES) | obs–calc (log Po^in situ) [2] | other results
1 | NC(=O)N1c2ccccc2C=Cc2ccccc21 [Carbamazepine] | – | log Po [1]: −4.54
2 | CCC1(C)CC(=O)NC1=O (stereo not shown) [Ethosuximide] | – | log PABL [1]: −4.41
3 | N[C@H](Cc1ccc(F)cc1)C(=O)O [p-F-Phenylalanine(D)] | 0.1 | –
4 | N[C@@H](Cc1ccc(F)cc1)C(=O)O [p-F-Phenylalanine(L)] | 1.4 and 1.5 | –

“And” between values parts separate entries of the source, which are not always exact repeats. Equal entries are not always repeated.
